Assay results published in patent US20200368338A1, “CONJUGATE OF WT1-DERIVED PEPTIDES AND COMPOSITION COMPRISING THE SAME” (SUMITOMO DAINIPPON PHARMA CO., LTD., priority 2017, published 2020).

System: HLA-A0201 transgenic mouse
Assay: Evaluation of CTL inducing ability in vivo in HLA-A0201 transgenic mouse (IFNγ ELISPOT assay of splenocytes)
Conditions: intradermal emulsion with Montanide ISA 51 VG, tail base, two sites, splenocytes stimulated with peptide of SEQ ID NO: 2, FIG. 2

## RMFPNAPYL (Arg-Met-Phe-Pro-Asn-Ala-Pro-Tyr-Leu) [peptide of SEQ ID NO: 2, HLA-A0201-restricted WT1 peptide]
  induction of CTLs responsive to the peptide of SEQ ID NO: 2 (IFNγ-producing splenocytes): induced CTLs responsive to the peptide of SEQ ID NO: 2
